The values that follow come from ChEMBL document CHEMBL4808172, “Structure-Activity Relationship of Heterocyclic P2Y14 Receptor Antagonists: Removal of the Zwitterionic Character with Piperidine Bioisosteres” (J Med Chem, 2021).

Chains of the proteins cited; added tags and fusions are not shown. Lines headed by an entry give the natural chain unless they say otherwise; changes in a name come on top.
UniProt Q12809: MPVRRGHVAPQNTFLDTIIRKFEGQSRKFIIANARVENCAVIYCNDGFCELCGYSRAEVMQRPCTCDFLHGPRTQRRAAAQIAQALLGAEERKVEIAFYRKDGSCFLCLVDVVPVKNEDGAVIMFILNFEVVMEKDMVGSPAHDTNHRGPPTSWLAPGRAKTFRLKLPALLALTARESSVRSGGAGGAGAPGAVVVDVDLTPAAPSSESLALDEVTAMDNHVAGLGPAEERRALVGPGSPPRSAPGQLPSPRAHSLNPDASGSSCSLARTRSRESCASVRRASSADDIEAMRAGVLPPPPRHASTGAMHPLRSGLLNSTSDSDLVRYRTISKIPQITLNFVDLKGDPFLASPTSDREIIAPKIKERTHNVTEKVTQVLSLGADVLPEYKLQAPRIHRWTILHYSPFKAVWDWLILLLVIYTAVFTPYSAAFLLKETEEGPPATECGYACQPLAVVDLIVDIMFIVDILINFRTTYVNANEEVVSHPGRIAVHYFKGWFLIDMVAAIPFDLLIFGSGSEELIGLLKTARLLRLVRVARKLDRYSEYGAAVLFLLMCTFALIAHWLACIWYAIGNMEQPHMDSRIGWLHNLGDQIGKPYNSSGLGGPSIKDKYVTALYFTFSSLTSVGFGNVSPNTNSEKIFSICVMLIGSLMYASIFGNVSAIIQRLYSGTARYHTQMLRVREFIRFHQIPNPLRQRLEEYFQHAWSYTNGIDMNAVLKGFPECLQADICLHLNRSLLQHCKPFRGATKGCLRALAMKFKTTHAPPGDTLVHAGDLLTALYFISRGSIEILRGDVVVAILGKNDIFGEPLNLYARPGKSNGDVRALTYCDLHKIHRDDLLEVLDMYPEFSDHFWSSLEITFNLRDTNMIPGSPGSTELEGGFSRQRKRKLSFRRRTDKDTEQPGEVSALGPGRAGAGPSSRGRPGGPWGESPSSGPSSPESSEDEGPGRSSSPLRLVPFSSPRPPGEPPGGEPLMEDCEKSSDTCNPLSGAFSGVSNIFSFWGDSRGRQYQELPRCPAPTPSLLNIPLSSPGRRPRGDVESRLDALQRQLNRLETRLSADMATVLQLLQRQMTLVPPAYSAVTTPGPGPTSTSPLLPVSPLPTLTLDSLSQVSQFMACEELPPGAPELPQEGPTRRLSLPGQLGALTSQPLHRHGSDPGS

For orientation: EC50 means the concentration giving half of the maximal effect. A high value points to weaker potency.

This assay concerns the target Voltage-gated inwardly rectifying potassium channel KCNH2 (Homo sapiens, UniProt Q12809).

Compound `CC(=O)N1CCC(c2ccc(-c3cc(C(=O)O)cc4cc(-c5ccc(C(F)(F)F)cc5)ccc34)cc2)CC1` came in with an EC50 of 16 µM.
